Test results reported in paper PMC3762770, “Small Molecule Suppressors of Drosophila Kinesin Deficiency Rescue Motor Axon Development in a Zebrafish Model of Spinal Muscular Atrophy” (PLoS ONE, 2013).

Substrate: Nc1ncnc2c1ncn2[C@@H]1O[C@H](COP(=O)(O)OP(=O)(O)OP(=O)(O)O)[C@@H](O)[C@H]1O
Assay: enzyme kinetics (Km) in radiometric kinase assay
Assay type: biochemical, Homo sapiens

B1: GSK-3β (Homo sapiens) (protein)
chain: MSGRPRTTSFAESCKPVQQPSAFGSMKVSRDKDGSKVTTVVATPGQGPDRPQEVSYTDTKVIGNGSFGVVYQAKLCDSGELVAIKKVLQDKRFKNRELQIMRKLDHCNIVRLRYFFYSSGEKKDEVYLNLVLDYVPETVYRVARHYSRAKQTLPVIYVKLYMYQLFRSLAYIHSFGICHRDIKPQNLLLDPDTAVLKLCDFGSAKQLVRGEPNVSYICSRYYRAPELIFGATDYTSSIDVWSAGCVLAELLLGQPIFPGDSGVDQLVEIIKVLGTPTREQIREMNPNYTEFKFPQIKAHPWTKVFRPRTPPEAIALCSRLLEYTPTARLTPLEACAHSFFDELRDPNVKLPNGRDTPALFNFTTQELSSNPPLATILIPPHARIQAAASTPTNATAASDANTGDRGQTNNAASASASNST
notes: N-terminally His-tagged protein expressed in Sf9 cells (NP_002084.2)
Km: 24 ± 4.5 µM
